Laboratory results published in PubChem BioAssay AID645 (SRMLSC, 2007).
The entries are a selection whose mix differs from that of the whole data set. Activity calls are given as the source filed them.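 How the source made its calls: active means HER2 level under 5% of the carrier-only control; inconclusive means no clear call, values can overlap the other calls; inactive means the rest.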

Amino acid sequences for entries named in this document (tags omitted).
UniProt P04626, whole entry: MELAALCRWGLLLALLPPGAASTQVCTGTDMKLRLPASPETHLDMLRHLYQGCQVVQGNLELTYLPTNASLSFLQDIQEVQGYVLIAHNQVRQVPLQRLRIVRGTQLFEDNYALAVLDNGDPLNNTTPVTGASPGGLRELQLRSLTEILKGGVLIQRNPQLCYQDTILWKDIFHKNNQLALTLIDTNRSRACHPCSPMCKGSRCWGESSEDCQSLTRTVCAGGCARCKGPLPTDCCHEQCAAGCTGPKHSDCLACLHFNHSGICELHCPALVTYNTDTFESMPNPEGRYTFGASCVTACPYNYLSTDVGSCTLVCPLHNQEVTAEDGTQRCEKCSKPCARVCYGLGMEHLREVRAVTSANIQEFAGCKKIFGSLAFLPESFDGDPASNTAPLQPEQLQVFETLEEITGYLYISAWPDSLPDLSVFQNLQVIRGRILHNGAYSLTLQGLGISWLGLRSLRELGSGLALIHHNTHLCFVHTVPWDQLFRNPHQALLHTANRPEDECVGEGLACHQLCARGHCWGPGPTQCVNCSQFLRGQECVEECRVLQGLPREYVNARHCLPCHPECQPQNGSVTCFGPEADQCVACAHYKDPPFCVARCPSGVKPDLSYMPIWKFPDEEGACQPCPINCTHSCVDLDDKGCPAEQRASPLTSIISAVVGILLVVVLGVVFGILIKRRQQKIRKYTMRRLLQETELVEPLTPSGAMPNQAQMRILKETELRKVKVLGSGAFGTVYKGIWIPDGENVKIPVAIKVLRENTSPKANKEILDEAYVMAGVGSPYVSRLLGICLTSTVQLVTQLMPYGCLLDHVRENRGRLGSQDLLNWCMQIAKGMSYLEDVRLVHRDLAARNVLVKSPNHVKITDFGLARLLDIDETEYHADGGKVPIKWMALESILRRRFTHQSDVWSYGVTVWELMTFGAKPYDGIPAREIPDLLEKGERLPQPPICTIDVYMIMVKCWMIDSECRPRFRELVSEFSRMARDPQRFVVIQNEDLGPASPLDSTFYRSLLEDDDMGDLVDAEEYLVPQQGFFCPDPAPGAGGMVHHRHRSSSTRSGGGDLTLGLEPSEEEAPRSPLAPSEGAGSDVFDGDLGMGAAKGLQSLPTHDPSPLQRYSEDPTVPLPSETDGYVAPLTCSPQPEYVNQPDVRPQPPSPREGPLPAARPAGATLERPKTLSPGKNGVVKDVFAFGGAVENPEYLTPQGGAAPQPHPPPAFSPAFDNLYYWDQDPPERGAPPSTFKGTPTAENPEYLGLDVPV

What follows are compounds tested against Receptor tyrosine-protein kinase erbB-2 (Homo sapiens) (UniProt P04626) (assay: reducers of endogenous HER2 protein levels – SKBR-3 cells, AlphaScreen, 66K library, primary screen (AID 645;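 further: 100% = DMSO carrier and 0% = 500 nM PU-H71 HSP90 inhibitor; lower value means stronger loss of Her2 protein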)). Conditions: SKBR-3 HER2 protein level, 18-24 h, at 10 µM, active compounds read low.

Row | Structure (SMILES) | HER2 level % of control
1 | N#CC1(Nc2ccccc2)CCN(CCc2ccccc2)CC1 | inactive: 84.9%
2 | O=C(OC1CN2CCC1CC2)C1c2ccccc2Oc2ccccc21 (configuration not stated) | inactive: 117%
3 | COc1ccc(NC2CCN(CCc3ccccc3)CC2)c(OC)c1 | inactive: 84.9%
4 | Fc1ccccc1NC1CCN(Cc2ccccc2)CC1 | inactive: 68.7%
5 | CCC(CO)(C(=O)OC1CN2CCC1CC2)c1ccccc1 (configuration not stated) | inactive: 95%
6 | CCOc1ncccc1C(=O)NCC1(N2CCOCC2)CCCCC1 | inactive: 88.1%
7 | N/C(=N\O)c1c(N)no[n+]1[O-] | inactive: 110%
